From US6090786A, “Serine proteases, their activity and their synthetic inhibitors” (priority 1994, dated 2000)
Counter-ions that a name gives are not always drawn.

By UniProt entry, the sequences of proteins in these tests, tags left out.
UniProt P27487, whole entry: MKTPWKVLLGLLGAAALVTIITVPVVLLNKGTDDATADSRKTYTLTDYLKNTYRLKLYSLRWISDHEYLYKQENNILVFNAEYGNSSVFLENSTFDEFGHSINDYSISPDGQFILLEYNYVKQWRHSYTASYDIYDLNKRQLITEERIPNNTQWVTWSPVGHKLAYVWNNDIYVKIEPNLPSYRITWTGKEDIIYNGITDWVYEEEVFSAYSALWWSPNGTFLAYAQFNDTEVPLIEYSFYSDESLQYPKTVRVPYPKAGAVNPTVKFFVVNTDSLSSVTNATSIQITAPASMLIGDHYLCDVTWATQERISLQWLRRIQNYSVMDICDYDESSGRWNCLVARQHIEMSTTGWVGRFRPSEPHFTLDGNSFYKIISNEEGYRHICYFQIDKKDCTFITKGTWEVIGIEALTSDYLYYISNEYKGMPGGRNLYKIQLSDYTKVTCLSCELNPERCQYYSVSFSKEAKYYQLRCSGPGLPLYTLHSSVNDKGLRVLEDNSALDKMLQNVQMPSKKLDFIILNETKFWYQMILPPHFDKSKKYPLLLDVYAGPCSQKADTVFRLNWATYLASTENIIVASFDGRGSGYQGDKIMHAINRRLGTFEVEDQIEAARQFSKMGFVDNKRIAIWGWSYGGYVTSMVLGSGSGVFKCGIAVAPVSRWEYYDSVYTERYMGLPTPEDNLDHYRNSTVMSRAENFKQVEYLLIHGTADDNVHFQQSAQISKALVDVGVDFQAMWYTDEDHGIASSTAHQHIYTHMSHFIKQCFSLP

Target: T1, DPPIV (Homo sapiens, UniProt P27487)
T1 construct: from tissue; host or cells: prostasomes from human seminal plasma, purified on immobilized adenosine deaminase
Test: Stability of the inhibitor-DPPIV adduct
Type: biochemical
Conditions: DPPIV incubated with 0.5 mM inhibitor 1 hour, excess removed by gel filtration

SMILES	stability of the adduct at room temperature [weeks]
N[C@@H](Cc1cccc2ccccc12)C(=O)N1CCC[C@H]1P(=O)(Oc1ccccc1)Oc1ccccc1 [1-naphthyl-alanine-Pro^P -(OPh)2, Diphenyl (R)-1-[(S)-(1-naphthyl)alanyl]pyrrolidine-2-phosphonate hydrochloride]	> 4
N[C@@H](CC1CCCCC1)C(=O)N1CCC[C@H]1P(=O)(Oc1ccccc1)Oc1ccccc1 [Cyclohexylalanine-Pro^P -(OPh)2, Diphenyl (R)-1-[(S)-cyclohexylalanyl]pyrrolidine-2-phosphonate hydrochloride]	> 4
